Data on two compounds can be found in ChEMBL document CHEMBL4834419 (J Med Chem, 2021).

Amino acid sequences for entries named in this document (tags omitted). A change or cut given only in a name is not applied to a line headed by its entry.
UniProt P10276, whole entry: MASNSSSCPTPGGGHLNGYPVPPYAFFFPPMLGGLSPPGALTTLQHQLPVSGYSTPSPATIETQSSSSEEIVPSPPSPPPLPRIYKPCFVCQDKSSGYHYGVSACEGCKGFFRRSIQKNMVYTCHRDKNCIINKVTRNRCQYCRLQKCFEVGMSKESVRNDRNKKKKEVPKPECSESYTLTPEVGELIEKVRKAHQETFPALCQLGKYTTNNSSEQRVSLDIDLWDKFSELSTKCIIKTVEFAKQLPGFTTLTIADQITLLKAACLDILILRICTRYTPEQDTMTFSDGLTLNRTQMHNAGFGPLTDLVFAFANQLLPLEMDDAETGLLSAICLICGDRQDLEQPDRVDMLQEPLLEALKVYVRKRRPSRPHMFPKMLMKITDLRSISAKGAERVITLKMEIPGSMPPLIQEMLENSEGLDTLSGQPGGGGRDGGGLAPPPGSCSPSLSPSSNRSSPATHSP
UniProt P55055, whole entry: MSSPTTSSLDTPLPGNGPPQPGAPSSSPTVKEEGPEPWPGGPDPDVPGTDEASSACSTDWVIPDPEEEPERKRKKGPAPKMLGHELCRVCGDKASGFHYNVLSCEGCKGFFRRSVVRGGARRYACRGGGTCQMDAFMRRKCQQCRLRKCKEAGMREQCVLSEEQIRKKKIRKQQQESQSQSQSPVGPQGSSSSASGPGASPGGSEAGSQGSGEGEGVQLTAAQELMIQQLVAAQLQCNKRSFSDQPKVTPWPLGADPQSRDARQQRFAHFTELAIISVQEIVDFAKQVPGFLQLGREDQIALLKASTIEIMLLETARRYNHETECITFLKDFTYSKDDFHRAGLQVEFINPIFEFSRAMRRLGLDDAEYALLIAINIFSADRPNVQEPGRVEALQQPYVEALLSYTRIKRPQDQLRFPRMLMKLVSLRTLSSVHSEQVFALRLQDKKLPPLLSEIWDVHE
UniProt P37231: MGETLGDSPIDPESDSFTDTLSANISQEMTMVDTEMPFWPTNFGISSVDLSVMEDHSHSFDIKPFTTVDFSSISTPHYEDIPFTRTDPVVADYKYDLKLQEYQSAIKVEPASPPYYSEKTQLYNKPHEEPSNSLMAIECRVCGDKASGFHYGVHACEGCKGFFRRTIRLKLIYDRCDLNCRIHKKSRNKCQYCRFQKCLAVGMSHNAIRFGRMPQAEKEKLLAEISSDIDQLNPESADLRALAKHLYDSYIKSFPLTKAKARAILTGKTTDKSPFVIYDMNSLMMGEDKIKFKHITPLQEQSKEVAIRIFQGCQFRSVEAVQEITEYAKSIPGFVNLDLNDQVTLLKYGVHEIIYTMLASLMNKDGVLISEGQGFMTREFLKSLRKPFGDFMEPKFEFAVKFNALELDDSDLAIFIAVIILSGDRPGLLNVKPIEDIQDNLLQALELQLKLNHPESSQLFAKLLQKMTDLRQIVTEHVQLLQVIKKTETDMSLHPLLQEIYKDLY
UniProt Q13133, whole entry: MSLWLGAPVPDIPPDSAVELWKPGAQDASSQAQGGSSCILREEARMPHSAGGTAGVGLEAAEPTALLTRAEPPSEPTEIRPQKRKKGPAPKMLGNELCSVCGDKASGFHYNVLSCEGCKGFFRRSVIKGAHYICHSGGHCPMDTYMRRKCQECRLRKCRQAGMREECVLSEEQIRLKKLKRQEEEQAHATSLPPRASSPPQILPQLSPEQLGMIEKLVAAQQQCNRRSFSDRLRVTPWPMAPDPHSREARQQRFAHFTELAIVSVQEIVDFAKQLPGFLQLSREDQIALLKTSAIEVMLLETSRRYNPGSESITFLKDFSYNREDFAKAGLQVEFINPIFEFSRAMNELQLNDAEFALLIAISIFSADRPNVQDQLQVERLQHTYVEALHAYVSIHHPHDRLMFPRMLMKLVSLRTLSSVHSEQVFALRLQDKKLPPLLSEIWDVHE

Holding throughout (format): cell-based
What all share (conditions): filed as agonist, time 14-16 hrs

Assay [1] addresses T1, Bile acid receptor (Homo sapiens) (UniProt Q96RI1).
T1 sequence (whole entry): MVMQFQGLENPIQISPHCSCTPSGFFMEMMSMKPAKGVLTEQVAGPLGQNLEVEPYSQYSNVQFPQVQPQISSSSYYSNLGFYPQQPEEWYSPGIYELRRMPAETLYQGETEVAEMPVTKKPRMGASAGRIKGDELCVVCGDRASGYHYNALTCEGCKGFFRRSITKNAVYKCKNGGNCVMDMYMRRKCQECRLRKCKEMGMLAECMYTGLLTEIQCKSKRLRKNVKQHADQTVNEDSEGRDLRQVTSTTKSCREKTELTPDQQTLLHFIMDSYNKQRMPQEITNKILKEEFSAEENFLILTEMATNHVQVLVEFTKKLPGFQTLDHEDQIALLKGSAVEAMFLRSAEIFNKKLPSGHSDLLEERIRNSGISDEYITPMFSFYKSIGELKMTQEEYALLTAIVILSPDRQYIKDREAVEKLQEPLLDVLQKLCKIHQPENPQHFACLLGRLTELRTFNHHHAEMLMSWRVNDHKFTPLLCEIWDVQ
Kind of assay: Agonist activity against human FXR in human HEK293T cells co-expressing pFR/pRL-Luc assessed as receptor activation at 10 uM incubated for 14 to 16 hrs by hybrid reporter gene assay relative to bexarotene. An outline of the steps:
(§1)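 Gal4 hybrid reporter assay in HEK293T cells, seeded 24 h before transfection (Lipofectamine LTX, Opti-MEM) with pFR-Luc, pRL-SV40 and pFA-CMV plasmid carrying the hinge region and LBD of the human receptor. After 5 h, compound added in 0.1% DMSO, with 0.1% DMSO alone as untreated control. Dual-Glo luciferase read after 14−16 h; firefly/renilla normalized; duplicates, ≥2 independent experiments.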

For assay [2], the target named is T2, Retinoic acid receptor RXR-alpha (Homo sapiens) (UniProt P19793).
T2 sequence (whole entry): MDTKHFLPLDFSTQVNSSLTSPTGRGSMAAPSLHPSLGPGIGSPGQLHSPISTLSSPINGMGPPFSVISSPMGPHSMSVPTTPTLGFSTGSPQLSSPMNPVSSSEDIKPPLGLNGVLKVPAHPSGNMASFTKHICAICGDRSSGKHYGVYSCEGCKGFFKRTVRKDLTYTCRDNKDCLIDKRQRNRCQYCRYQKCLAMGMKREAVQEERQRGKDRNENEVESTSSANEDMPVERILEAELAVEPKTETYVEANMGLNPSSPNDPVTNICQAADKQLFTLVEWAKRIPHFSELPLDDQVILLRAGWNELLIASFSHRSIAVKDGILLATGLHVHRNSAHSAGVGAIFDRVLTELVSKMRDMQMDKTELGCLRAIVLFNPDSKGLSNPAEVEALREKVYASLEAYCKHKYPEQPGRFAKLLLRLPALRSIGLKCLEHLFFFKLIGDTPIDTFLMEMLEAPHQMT
The experiment in a line: Agonist activity against human RXRalpha in human HEK293T cells co-expressing pFR/pRL-Luc assessed as receptor activation at 10 uM incubated for 14 to 16 hrs by hybrid reporter gene assay relative to bexarotene. The method, boiled down: as §1
In general terms: Reporter assays use an easily measured gene product as a stand-in for the process of interest.

Assay [3] deals with Retinoic acid receptor alpha (Homo sapiens) (UniProt P10276). The experiment in a line: Agonist activity against human RARalpha in human HEK293T cells co-expressing pFR/pRL-Luc assessed as receptor activation at 10 uM incubated for 14 to 16 hrs by hybrid reporter gene assay relative to bexarotene. An outline of the steps:
as §1

The target of assay [4] is T3, Peroxisome proliferator-activated receptor delta (Homo sapiens) (UniProt Q03181).
T3 sequence (whole entry): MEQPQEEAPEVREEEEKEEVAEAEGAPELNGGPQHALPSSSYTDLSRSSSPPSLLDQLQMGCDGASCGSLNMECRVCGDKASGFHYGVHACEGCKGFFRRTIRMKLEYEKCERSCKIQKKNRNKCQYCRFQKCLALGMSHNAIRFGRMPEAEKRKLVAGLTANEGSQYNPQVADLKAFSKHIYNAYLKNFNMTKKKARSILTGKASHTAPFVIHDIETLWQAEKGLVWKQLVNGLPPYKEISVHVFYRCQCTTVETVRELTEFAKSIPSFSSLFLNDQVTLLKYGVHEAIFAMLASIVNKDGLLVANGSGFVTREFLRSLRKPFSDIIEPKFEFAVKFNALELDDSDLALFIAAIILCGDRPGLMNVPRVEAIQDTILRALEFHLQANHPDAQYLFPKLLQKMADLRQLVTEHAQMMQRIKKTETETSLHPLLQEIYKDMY
The experiment in a line: Agonist activity against human PPARdelta in human HEK293T cells co-expressing pFR/pRL-Luc assessed as receptor activation at 10 uM incubated for 14 to 16 hrs by hybrid reporter gene assay relative to bexarotene. The method, boiled down:
as §1

The target in assay [5] is T4, Peroxisome proliferator-activated receptor alpha (Homo sapiens) (UniProt Q07869).
T4 sequence (whole entry): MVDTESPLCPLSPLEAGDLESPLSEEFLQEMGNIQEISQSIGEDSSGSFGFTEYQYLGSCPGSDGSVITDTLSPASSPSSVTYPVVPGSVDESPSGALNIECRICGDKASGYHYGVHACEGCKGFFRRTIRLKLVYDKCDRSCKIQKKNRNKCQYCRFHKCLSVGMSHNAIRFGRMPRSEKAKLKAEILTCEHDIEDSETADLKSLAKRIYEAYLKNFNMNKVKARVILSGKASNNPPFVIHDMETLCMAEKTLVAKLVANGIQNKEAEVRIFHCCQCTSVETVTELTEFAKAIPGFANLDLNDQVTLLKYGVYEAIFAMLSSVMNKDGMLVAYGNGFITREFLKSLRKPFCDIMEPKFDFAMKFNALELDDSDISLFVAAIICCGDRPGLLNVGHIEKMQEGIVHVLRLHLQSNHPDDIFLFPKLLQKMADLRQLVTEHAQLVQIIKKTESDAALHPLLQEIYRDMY
The experiment in a line: Agonist activity against human PPARalpha in human HEK293T cells co-expressing pFR/pRL-Luc assessed as receptor activation at 10 uM incubated for 14 to 16 hrs by hybrid reporter gene assay relative to bexarotene. The method, boiled down:
as §1

Assay [6] deals with Oxysterols receptor LXR-beta (Homo sapiens) (UniProt P55055). Kind of assay: Agonist activity against human LXRbeta in human HEK293T cells co-expressing pFR/pRL-Luc assessed as receptor activation at 10 uM incubated for 14 to 16 hrs by hybrid reporter gene assay relative to bexarotene. The method, boiled down:
as §1

For assay [7], the target named is Peroxisome proliferator-activated receptor gamma (Homo sapiens) (UniProt P37231). The experiment in a line: Agonist activity against human PPARgamma in human HEK293T cells co-expressing pFR/pRL-Luc assessed as receptor activation at 10 uM incubated for 14 to 16 hrs by hybrid reporter gene assay relative to bexarotene. An outline of the steps:
as §1

For assay [8], the target named is Oxysterols receptor LXR-alpha (Homo sapiens) (UniProt Q13133). The experiment in a line: Agonist activity against human LXRalpha in human HEK293T cells co-expressing pFR/pRL-Luc assessed as receptor activation at 10 uM incubated for 14 to 16 hrs by hybrid reporter gene assay relative to bexarotene. The method, boiled down: as §1
Assay [9] concerns the target T5, Retinoic acid receptor RXR-gamma (Homo sapiens) (UniProt P48443).
T5 sequence (whole entry): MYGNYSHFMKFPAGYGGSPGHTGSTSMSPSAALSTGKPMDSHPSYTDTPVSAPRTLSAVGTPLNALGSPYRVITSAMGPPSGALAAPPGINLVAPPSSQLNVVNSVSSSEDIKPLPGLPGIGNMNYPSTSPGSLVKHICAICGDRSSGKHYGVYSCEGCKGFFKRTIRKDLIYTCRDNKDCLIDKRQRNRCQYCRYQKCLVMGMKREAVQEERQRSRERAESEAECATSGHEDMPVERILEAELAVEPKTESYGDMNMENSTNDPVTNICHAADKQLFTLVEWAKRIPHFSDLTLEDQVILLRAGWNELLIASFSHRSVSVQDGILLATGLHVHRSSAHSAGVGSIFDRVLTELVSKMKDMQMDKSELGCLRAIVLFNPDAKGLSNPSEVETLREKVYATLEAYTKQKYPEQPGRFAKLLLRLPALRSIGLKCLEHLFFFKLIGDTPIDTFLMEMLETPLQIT
Kind of assay: Agonist activity against human RXRgamma in human HEK293T cells co-expressing pFR/pRL-Luc assessed as receptor activation at 10 uM incubated for 14 to 16 hrs by hybrid reporter gene assay relative to bexarotene. An outline of the steps: as §1

`O=C(O)CCc1nc(-c2ccccc2)c(-c2cc(C(F)(F)F)cc(C(F)(F)F)c2)o1`: the Activity was determined as 1% in assay [1]; 80% in [2]; 1% in [3]; 1% in [4]; 3% in assay [5]; 2% in [6]. Also, the values for the Activity in assay [7], in assay [8] and in assay [9] were 7%, 1% and 115%, respectively.
For `O=C(O)CCc1cc(-c2cc(Cl)cc(Cl)c2)n(-c2ccc(Cl)cc2)n1`, the Activity in [1] is 2%; in assay [2] it was 34%; in [3], 5%; in assay [4], 7%; in [5] it was 6%; in assay [6], 4%. In addition, the Activity was 7% in assay [7], 4% in [8] and 93% in assay [9].
